What all share (format): cell-based
One assay concerns LNCaP tumor cells. As to the kind of experiment: 51Cr-release cytotoxicity (CTX) assay with peptide-stimulated CTL against LNCaP. As for the experimental part:
(§1) The binding of trastuzumab (Herceptin) to HER2/neu for the development of novel vaccines against HER2/neu-expressing tumors was studied. The Ab-binding site of trastuzumab (Tz) was analyzed for peptides that bind HLA-A2 and A3. A peptide Her577 (aa; 577-585) within the Ab-binding site on HER2/neu was identified, synthesized and tested. T2 HLA-stabilization assays were performed to confirm HLA-A2 binding activity of Her577 by flow cytometry. PBMC from 9 healthy donors were stimulated with Her577 and tested in ^51Cr-release cytotoxicity (CTX) assays against 3 HER2/neu-expressing tumor cell lines. Her577-stimulated PBMC from 5 HLA-A2^+ healthy donors were also tested in CTX with HER/2/neu^+ targets pre-treated with Tz.

The next assay has as its system MCF-7 tumor cells. Kind of assay: 51Cr-release cytotoxicity (CTX) assay with peptide-stimulated CTL against MCF-7. As to the method: as §1
Another assay relates to SKOV-3 tumor cells. As to the kind of experiment: 51Cr-release cytotoxicity (CTX) assay with peptide-stimulated CTL against SKOV-3. As to the method: as §1
Setting [1] is: 10 and 50 μg/ml doses of Tz, Her577-stimulated CTL.

Take trastuzumab [Tz]: in the assay with LNCaP tumor cells (setting [1]), the “change in CTX against LNCaP with Tz dose” value is “dose-dependent incremental increase”. Besides, the “change in CTX against MCF-7 with Tz dose” value in the assay with MCF-7 tumor cells (setting [1]) is on record as “dose-dependent incremental increase”. Moreover, in the assay on SKOV-3 tumor cells (setting [1]), the “change in CTX against SKOV-3 with Tz dose” value was “dose-dependent incremental increase”.

“E75: immunogenic peptide from HER2/neu; E75 vaccine sequence (SEQ ID NO: 2)”: the “average specific CTX (% lysis) against LNCaP” value in the assay on LNCaP tumor cells (peptide-stimulated CTL from healthy donor PBMC, LNCaP (HLA-A2+), n = 2) came out at 30 ± 1 % lysis. In addition, the “average specific CTX (% lysis) against MCF-7” value in the assay on MCF-7 tumor cells (peptide-stimulated CTL from healthy donor PBMC, MCF-7 (HLA-A2+), n = 5) turned out to be 51 ± 4 % lysis. Moreover, the “average specific CTX (% lysis) against SKOV-3” value in the assay on SKOV-3 tumor cells (peptide-stimulated CTL from healthy donor PBMC, SKOV-3 (HLA-A3+), n = 2) came to 51 ± 20 % lysis.
